# In PubChem BioAssay AID743445 (Broad Institute, 2014):
# Protein sequences, listed by entry. Tags and fused reporters are not part of them.
# UniProt O96028, whole entry: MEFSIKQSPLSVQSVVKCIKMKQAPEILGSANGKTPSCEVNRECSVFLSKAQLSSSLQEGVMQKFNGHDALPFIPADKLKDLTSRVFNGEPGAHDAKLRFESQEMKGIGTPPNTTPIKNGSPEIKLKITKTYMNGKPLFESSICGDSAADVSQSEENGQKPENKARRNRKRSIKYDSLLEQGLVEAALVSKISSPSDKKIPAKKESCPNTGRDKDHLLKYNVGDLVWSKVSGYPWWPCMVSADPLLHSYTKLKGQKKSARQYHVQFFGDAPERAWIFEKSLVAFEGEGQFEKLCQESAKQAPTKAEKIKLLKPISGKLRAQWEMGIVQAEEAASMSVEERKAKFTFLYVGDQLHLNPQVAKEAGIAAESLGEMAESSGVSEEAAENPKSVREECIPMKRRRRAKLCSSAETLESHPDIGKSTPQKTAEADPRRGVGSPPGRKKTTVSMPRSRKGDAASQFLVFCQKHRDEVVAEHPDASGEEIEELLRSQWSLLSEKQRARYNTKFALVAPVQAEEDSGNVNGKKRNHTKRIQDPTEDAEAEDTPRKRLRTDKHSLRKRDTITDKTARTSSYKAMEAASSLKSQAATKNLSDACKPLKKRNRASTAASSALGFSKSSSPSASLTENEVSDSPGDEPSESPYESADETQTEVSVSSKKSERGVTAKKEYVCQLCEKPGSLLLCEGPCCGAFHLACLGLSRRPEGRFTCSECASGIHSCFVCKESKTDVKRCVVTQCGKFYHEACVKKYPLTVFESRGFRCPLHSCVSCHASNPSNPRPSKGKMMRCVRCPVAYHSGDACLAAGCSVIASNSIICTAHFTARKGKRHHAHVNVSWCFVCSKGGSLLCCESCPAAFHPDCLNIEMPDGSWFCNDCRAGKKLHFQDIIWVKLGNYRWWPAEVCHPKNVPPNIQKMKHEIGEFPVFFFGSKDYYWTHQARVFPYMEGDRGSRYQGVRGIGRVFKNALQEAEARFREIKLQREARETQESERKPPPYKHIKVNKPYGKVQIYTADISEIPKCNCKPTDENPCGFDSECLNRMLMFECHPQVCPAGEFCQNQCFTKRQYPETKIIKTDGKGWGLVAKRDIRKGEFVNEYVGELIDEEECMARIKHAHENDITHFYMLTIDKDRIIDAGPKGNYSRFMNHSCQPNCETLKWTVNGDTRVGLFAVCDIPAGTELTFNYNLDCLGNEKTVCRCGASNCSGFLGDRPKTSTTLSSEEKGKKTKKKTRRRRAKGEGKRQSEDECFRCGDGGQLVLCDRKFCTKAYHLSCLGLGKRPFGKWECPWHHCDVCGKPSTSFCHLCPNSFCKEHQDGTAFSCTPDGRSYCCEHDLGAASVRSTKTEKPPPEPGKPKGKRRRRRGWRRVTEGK
# The list shows a part of the results, in another mix than the full data. Some results for these compounds are left out of this collection, so the calls shown say nothing about other tests. The source made the active and inactive calls. Cut-off read from the data, not from the text of the source: active = inhibition above about 50%; inactive = the rest.
# Target: Histone-lysine N-methyltransferase NSD2 (Homo sapiens) (UniProt O96028)
# Assay: NSD2 histone methyltransferase inhibitors, primary screen, biochemical, AlphaScreen, single concentration, set 2 (AID 743445)
# Details: NSD2 peptide methylation, 120 min, at 12.5 µM, active compounds read high
row,Compound,inhibition
1,O=C(NCC1(N2CCCCC2)CCCCC1)c1cc([N+](=O)[O-])ccc1Cl,inactive: 2.69%
2,CN1[C@@H]2CC[C@H]1CC(OC(=O)C(O)(c1ccccc1)c1ccccc1)C2 (stereo not given in full),inactive: 0.006%
3,CC(C)N1C(=O)CC2(CCN(CCOC(=O)C(O)(c3ccccc3)c3ccccc3)CC2)C1=O,inactive: -1.37%
4,COc1cc(SC)ccc1C(=O)NCC1(N(C)C)CCCCC1,inactive: 2.75%
5,CCN(CC)CC(C)C(C)OC(=O)C(O)(c1ccccc1)c1ccccc1 (stereo not given),inactive: 0.765%
6,Cc1ccc(C(=O)NCC2(N3CCCCC3)CCCCC2)cc1,inactive: -0.573%
7,CN(C)c1ccc(C(=O)NCC2(N(C)C)CCCCC2)cc1,inactive: -1.07%
8,CN(C)C1CCCC1OC(=O)C(O)(c1ccccc1)c1ccccc1 (stereo not given),inactive: -0.539%
9,Cc1ccccc1C(=O)NCC1(N2CCCCC2)CCCCC1,inactive: 0.178%
10,O=C(NCC1(N2CCCCC2)CCCCC1)c1cc(F)c(F)cc1Cl,inactive: 1.43%
11,C=CCN1CCN(CCOC(=O)C(O)(c2ccccc2)c2ccccc2)CC1,inactive: -3.3%
12,CCN1CCCC(OC(=O)C2(O)c3ccccc3C=Cc3ccccc32)C1 (stereo not given),inactive: 19%
13,Cc1cc(C(=O)NCC2(N3CCCCC3)CCCCC2)ccc1[N+](=O)[O-],inactive: -3.72%
14,COc1ccc(C(=O)NCC2(N(C)C)CCCCC2)cc1,inactive: -1.55%
15,CN(C)C1(CNC(=O)c2ccc(Br)cc2)CCCCC1,inactive: 0.421%
16,COc1cc(C(=O)NCC2(N(C)C)CCCCC2)c([N+](=O)[O-])cc1OC,inactive: -3.16%
17,COc1ccc(Cl)cc1C(=O)NCC1(N(C)C)CCCCC1,inactive: 0.65%
18,COc1cccc(C(=O)NCC2(N3CCCCC3)CCCCC2)c1,inactive: -1.79%
19,O=C(NCC1(N2CCCCC2)CCCCC1)c1cccc(Cl)c1,inactive: 20.1%
20,O=C(OC1CN2CCC1CC2)C(CO)(c1ccccc1)c1ccccc1 (stereo not given),inactive: 4.35%
21,COc1ccc(Br)c(C(=O)NCC2(N3CCCCC3)CCCCC2)c1,inactive: 2.79%
22,C=C(C)C#CC(O)(C(=O)OC1CCN(C)CC1)c1ccccc1 (stereo not given),inactive: 6.62%
23,CN(C)c1cccc(C(=O)NCC2(N(C)C)CCCCC2)c1,inactive: 1.09%
24,O=C(OCCN1CCCC1)C(O)(c1ccccc1)c1ccccc1,inactive: 1.03%
25,CC(C)Oc1ccc(C(=O)NCC2(N(C)C)CCCCC2)cc1,inactive: -2.45%
